Results taken from publication PMC3913438, “Nucleotide Pyrophosphatase/Phosphodiesterase 1 Exerts a Negative Effect on Starch Accumulation and Growth in Rice Seedlings under High Temperature and CO2 Concentration Conditions” (Plant and Cell Physiology, 2013).

What was measured:
purified protein [1] = substrate: Nc1ncnc2c1ncn2[C@@H]1O[C@H](COP(=O)(O)OS(=O)(=O)O)[C@@H](O)[C@H]1O; assay: purified protein; settings: 37.0 °C
purified protein [2] = substrate: Nc1ncnc2c1ncn2[C@@H]1O[C@H](COP(=O)(O)OP(=O)(O)O)[C@@H](O)[C@H]1O; assay: purified protein; format: biochemical, Oryza sativa; settings: 37°C, optimal pH (pH 4.5 with ADP), no metal required
[3] = substrate: O=c1ccn([C@@H]2O[C@H](CO[P@@](=O)(O)O[P@@](=O)(O)O[C@H]3O[C@H](CO)[C@@H](O)[C@H](O)[C@H]3O)[C@@H](O)[C@H]2O)c(=O)[nH]1; assay: purified protein, by the assay type; set-up: steady-state hydrolysis kinetics of purified recombinant rice NPPs, substrate 0.1-10 mM, 37 °C, optimal pH
From the text: To carry out substrate specificity and kinetic studies of NPP1, NPP2 and NPP6, in this work we produced transgenic rice cells ectopically expressing NPP1, NPP2 and NPP6 and purified the corresponding recombinant proteins as described in the Materials and Methods. Details of the processes for purification of recombinant proteins and quality of the final preparations are shown in Supplementary Table S2 and Supplementary Fig. S1A. […] Purification procedures of NPP1, NPP2 and NPP6 expressed in the transgenic rice cells (UNP1, UNP2 and UNP6, respectively) were essentially identical to those used in the earlier study ([Nanjo et al. 2006]). They are summarized in Supplementary Table S2. Rice callus cells (200 g) derived from the seed embryos of UNP1, UNP2 and UNP6 lines were homogenized in 5 vols. of 10 mM Tris–HCl (pH 8.8) and filtered through four layers of gauze. The homogenates were centrifuged at 20,000 × g for 10 min. The supernatants were then adjusted to acidic pH 5.4 with acetate buffer and centrifuged at 20,000 × g. After re-adjustment to pH 7.4 with 1.5 M Tris–HCl (pH 8.8) and further centrifugation at 20,000 × g, the resulting supernatants were applied to a Con A–Sepharose 4B column (ø 1.0 × 8 cm, Pharmacia) equilibrated with 40 mM Tris–HCl (pH 7.4), 0.5 M NaCl, 1 mM MnCl2 and 1 mM CaCl2, and eluted with 25 ml of 0.5 M α-methyl-D-mannopyranoside in 10 mM Tris–HCl (pH 7.4). […]

B1: NPP2 (Oryza sativa Japonica Group) (protein)
chain: RGDEQPLSRIAIERATVAAVDSASVKAQPTVLGLKGQSSDWVVVEFSHPKPSNDDWIGVFSPSGFSSEICQPEYYGDLPPYLCTSPIKFQYANFNNADYNRSGKGLLRLQLINQREDFSFALFSGGLSAPKLIAISNKVSFQNPKAPVYPRLAQGKSWNEMTVTWTSGYSIKEAIPFVEWGHKGGNQMLSPAGTLTFSRNSMCGSPARTVGWRDPGYIHTSFLKELWPDSLYTYRLGHRLLDGTHIWSKSYSFRASPYPGQDSVQRVVIFGDMGKAEIDGSDEYGNYEQASLYTTNQLIKELDSIDMVIHIGDLSYANGYLSQWDQFTQQIEPIASTVPYMIGSGNHERDWPGSGSFYGHNDSGGECGVPTQTMFYVPAENRAKLWYSTDYGMFRFCIADTEQDWRPGTEQYKFIEQCLSSVDRSKQPWLIFLAHRVLGYSSASWYEIMMGSYGEPMGRDGLEELWQKYKVDLAVFGHIHSYERTCPIYQNRCVQDGSNLYTGQFNATTHVIVGGGGAMLSPFRATVPYWSFFRDYDFGFSKLTALNHSTLLFEYKKSRDGKVYDHFTISRDYRDIMACSIDNCPRTTLAV
notes: recombinant, purified from transgenic rice cells (UNP2); 71 kDa SDS-PAGE, 374 kDa gel filtration; gene on chromosome 12
B1 was tested, and the Km (purified protein [1]) was 500 µM, the Vmax (purified protein [1]) was 29 µmol/min/mg and the kcat/Km (purified protein [1]) was 68000 M⁻¹ s⁻¹. It also gave a Vmax (purified protein [2]) of 68 µmol/min/mg.

B2: NPP6 (Oryza sativa Japonica Group) (protein)
chain: GGGGGVWAFSSSSSSSSYSRIGEQPLSLIGIHRATVGIDAAASVQASPRLLGVKGEDTAWVTVDFAAPHASDGDWIGVFSPSNFNASTCPGPSGSDSGPVICSAPIKYQLANYSSDYGKTGKGTLKFQLINQRQDFSFALFTGGLSNPKLIAVSNKIAFANPKAPVYPRLAQGKSWNEMTVTWTSGYDIKEAYPFVEWGMKWSPPTRTAAGTVTFDRESLCGEPARTVGWRDPGFIHTAFLTDLWPNKEYYYKIGHMLPDGKIVWGKFYSFKAPPFPGQKSLQRVVIFGDMGKAERDGSNEYSNYQPGSLNTTDTLIKDLDNIDIVFHIGDITYANGYISQWDQFTQQVEPITARVPYMIASGNHERDWPNSGSFFNGTDSGGECGVLAETMYYTPTENRANYWYKTDYGMFRFCVADSEHDWREGTEQYAFIESCLATVDRKKQPWLVFIAHRVLGYSSGFFYGAGGAFAEPTARQSLQRLWQRHRVDLAFYGHVHNYERTCPVYDGRCASPERSRYSGAVGGTIHAVVGGGGSHLSNFTAEAPPWSVYREMDYGFVKLTAFNYTSLLYEYRRSSDGEVHDSFTVHREYRDVLACVADSCPPTIPPAT
notes: recombinant, purified from transgenic rice cells (UNP6); 74 kDa SDS-PAGE, 224 kDa gel filtration; gene on chromosome 9
B2 gave a Km (purified protein [1]) of 800 µM, a Vmax (purified protein [1]) of 6 µmol/min/mg and a kcat/Km (purified protein [1]) of 93000 M⁻¹ s⁻¹. For the same protein, the Vmax [3] was 93 µmol/min/mg.
